Laboratory results: patent publication US12507703B2, “Methods, devices and compositions for preserving human milk” (The Trustees of Princeton University, priority 2023, dated 2025)

System: lipase
Experiment: Lipase/lipolysis assay (EnzChek Lipase Substrate, quenched BODIPY-fatty acid conjugate) on stored human milk; as to Lipase (RFU): test concentration or dose not given here
Conditions: for Lipase (RFU): stored 1 week at −20° C.
[1] = compound added to fresh human milk, thawed at room temperature, RFU <400 considered a hit
[2] = Biolog PM5 compound added to fresh human milk, RFU <400 = hit
[3] = Food Additive Library compound added to fresh human milk, thawed at room temperature, RFU of <400 considered a hit
[4] = Food-Sourced Compound Library compound added to fresh human milk, thawed at room temperature, RFU <400 considered a hit
[5] = Biolog PM2a compound added to fresh human milk, RFU <400 = hit
[6] = Biolog PM1 compound added to fresh human milk, RFU <400 = hit
[7] = Biolog PM4 compound added to fresh human milk, RFU <400 = hit

Row | Molecule | Lipase (RFU) [1] | Lipase (RFU) [3] | other results
1 | CCCCOC(=O)c1ccccc1C(=O)OCCCC [Dibutyl phthalate] | 1035.24 RFU | – | –
2 | Cc1ncc(C[n+]2csc(CCO)c2C)c(N)n1 [Thiamine] | – | – | Lipase (RFU) [2]: 935.4969 RFU and 938.7666 RFU
3 | C=C(C)C1CC=C(C)C(O)C1 (mixture of isomers) [Carveol] | 757.9921 RFU | 1221.384 RFU | –
4 | Nc1ncnc2c1ncn2C1OC(COP(=O)(O)OP(=O)(O)OCC2OC(O)C(O)C2O)C(O)C1O (stereo not drawn) [Adenosine 5′-diphosphoribose (sodium)] | – | – | Lipase (RFU) [4]: 1112.658 RFU
5 | CC1=NN(c2ccccc2)C(=O)C1 [Edaravone] | – | – | Lipase (RFU) [4]: 1086.284 RFU
6 | NC(=O)c1ccccc1 [Benzamide] | 1097.474 RFU | – | –
7 | CC/C=C\CCO [cis-3-Hexen-1-ol] | – | 854.7889 RFU | Lipase (RFU) [4]: 1097.087 RFU
8 | CC=Cc1ccc(O)c(OC)c1 [Isoeugenol] | 1139.306 RFU | 1084.439 RFU | –
9 | O=C(O)/C=C/C=C/C(=O)O [trans-trans-Muconic acid] | – | – | Lipase (RFU) [4]: 1096.606 RFU
10 | Cc1c(C(=O)O)c(O)cc2c1C(=O)c1c(O)c([C@@H]3O[C@H](CO)[C@@H](O)[C@H](O)[C@H]3O)c(O)c(O)c1C2=O [Carminic acid] | – | 820.6641 RFU | –
11 | N[C@@H](CCSSCC[C@H](N)C(=O)O)C(=O)O (racemic) [DL-Homocystine] | 704.0257 RFU | – | –
12 | CSSSC [Dimethyl trisulfide] | – | 894.0785 RFU | –
13 | CC(=O)N[C@@H](CC(N)=O)C(=O)O | 1045.166 RFU | – | –
14 | O=C(O)C=Cc1ccccc1 [Cinnamic acid] | 937.8232 RFU | 737.0173 RFU | –
15 | CC1=CC(=O)C(C(C)C)=CC1=O [Thymoquinone] | – | – | Lipase (RFU) [4]: 1249.473 RFU
16 | CCc1cnccn1 [Compound 2-Ethylpyrazine, 2-Ethylpyrazine] | – | 787.4299 RFU | –
17 | CC(CCC(=O)NCC(=O)O)C1CCC2C3CCC4CC(O)CCC4(C)C3CC(O)C12C (stereo not drawn) [Glycodeoxycholic acid (monohydrate)] | 1203.201 RFU | – | –
18 | COC(=O)/C=C/c1ccc(O)cc1 [Methyl p-coumarate] | 959.8824 RFU | – | –
19 | CC(O)C(C)O (stereo not drawn) [2,3-Butanediol] | 772.4441 RFU | – | Lipase (RFU) [5]: 960.3042 RFU

Row | Molecule | Lipase (RFU) [1] | Lipase (RFU) [3] | other results
20 | CSCCC(=O)O [3-(Methylthio)propionic acid] | – | – | Lipase (RFU) [4]: 1259.269 RFU
21 | C=C(CC(=O)O)C(=O)O [Itaconic Acid] | – | – | Lipase (RFU) [5]: 177.3666 RFU; Hit in lipase inhibition screen (in words) (approximately 2700 compound screen, human milk stored 1 week at −20° C., hit = RFU <400): significantly inhibited lipase activity
22 | CC(=O)OCC=Cc1ccccc1 [Cinnamyl acetate] | – | 1082.491 RFU | –
23 | N[C@@H](Cc1cc(I)c(Oc2ccc(O)c(I)c2)c(I)c1)C(=O)O [Liothyronine] | – | – | Lipase (RFU) [4]: 924.5631 RFU
24 | O=C(O)c1ccco1 [2-Furoic acid] | 1203.786 RFU | – | –
25 | CC(=O)OCCC(C)CCC=C(C)C (stereo not drawn) [Citronellyl acetate] | – | 1072.293 RFU | –
26 | O=C[C@H](O)[C@@H](O)[C@H](O)[C@H](O)COP(=O)(O)O [D-Glucose-6-Phosphate] | – | – | Lipase (RFU) [6]: 1034.77 RFU; Lipase (RFU) [7]: 847.6712 RFU
27 | O=C1C=CC(=O)c2ccccc21 [1,4-Naphthoquinone] | 822.1115 RFU | – | –
28 | CCC(O)CC [Compound 3-Pentanol, 3-Pentanol] | 647.4207 RFU | – | –
29 | CCCCCCCCCCCCCCC(=O)O [Pentadecanoic acid] | 941.0256 RFU | 930.9364 RFU | –
30 | O=C(O)C(O)Cc1ccccc1 (racemic) [DL-3-Phenyllactic acid] | – | – | Lipase (RFU) [4]: 814.8931 RFU
31 | CN(C)c1ncnc2nc[nH]c12 [6-(Dimethylamino)purine] | 877.529 RFU | – | –
32 | NC(=O)NC(NC(N)=O)C(=O)O [Allantoic acid] | – | – | Lipase (RFU) [4]: 639.3876 RFU
33 | CC(=O)CCC(=O)O [Levulinic acid] | – | 1112.446 RFU | –
34 | COc1ccc(-c2cc(=O)c3c(O)c(OC)c(O)c(OC)c3o2)cc1 [Nevadensin] | 1275.947 RFU | – | –
35 | OC[C@H]1O[C@@](CO)(O[C@H]2O[C@H](CO)[C@@H](O)[C@H](O)[C@H]2O)[C@@H](O)[C@@H]1O [Sucrose] | – | – | Lipase (RFU) [6]: 979.1753 RFU
36 | Cc1ncc(COP(=O)(O)O)c(C=O)c1O [Pyridoxal phosphate] | – | – | Lipase (RFU) [4]: 900.7177 RFU
37 | O=Cc1ccc(O)c(O)c1 [Protocatechualdehyde] | – | – | Lipase (RFU) [4]: 988.7553 RFU
38 | CC(C)(CC(=O)O)C(=O)O [2,2-Dimethylsuccinic acid] | – | – | Lipase (RFU) [4]: 994.432 RFU

Row | Molecule | Lipase (RFU) [1] | Lipase (RFU) [3] | other results
39 | O=C[C@H](O)[C@@H](O)[C@@H](O)[C@H](O)CO [D-Galactose] | – | – | Lipase (RFU) [6]: 1015.644 RFU
40 | O=P(O)(O)CP(=O)(O)O [Methylene Diphosphonic Acid] | – | – | Lipase (RFU) [7]: 1100.448 RFU
41 | CCOC(=O)CCC(=O)OCC [Diethyl succinate] | – | 730.8022 RFU | –
42 | C=C(C)[C@@H]1CC[C@]2(C)CC[C@]3(C)[C@H](CC[C@@H]4[C@@]5(C)CC[C@H](O)C(C)(C)[C@@H]5CC[C@]43C)[C@@H]12 [Lupeol] | 752.6333 RFU | – | –
43 | CCOCC(=O)O [Ethoxyacetic acid] | 998.8039 RFU | – | –
44 | CC(N)=O [Acetamide] | – | 918.0344 RFU | Lipase (RFU) [5]: 1098.671 RFU
45 | CCCCCCCCCCCCC(=O)O [Tridecanoic acid] | – | 833.6958 RFU | Lipase (RFU) [4]: 946.5476 RFU
46 | CNc1nc2c(ncn2[C@@H]2O[C@H](CO)[C@@H](O)[C@H]2O)c(=O)[nH]1 [Compound N2-Methylguanosine, N2-Methylguanosine] | 1090.144 RFU | – | –
47 | Nc1nc2ncc([C@H](O)[C@H](O)CO)nc2c(=O)[nH]1 [Neopterin] | – | – | Lipase (RFU) [4]: 959.9653 RFU
48 | OC[C@H]1O[C@@H](Oc2cc(O)cc(/C=C/c3ccc(O)cc3)c2)[C@H](O)[C@@H](O)[C@@H]1O [Polydatin] | 998.3778 RFU | – | –
49 | C[C@@H]1CC[C@@]2(OC1)O[C@H]1C[C@H]3[C@@H]4CC=C5C[C@@H](O)CC[C@]5(C)[C@H]4CC[C@]3(C)[C@H]1[C@@H]2C [Diosgenin] | 1107.594 RFU | – | –
50 | N[C@H]1C(O)O[C@H](CO)[C@@H](O)[C@@H]1O (stereo partly drawn) [D-Glucosamine] | – | – | Lipase (RFU) [5]: 688.2356 RFU
51 | Cc1ccccc1C(=O)NCC(=O)O [2-(2-Methylbenzamido)acetic acid] | 1362.377 RFU | – | –
52 | Cl.NCC(N)C(=O)O (stereo not drawn) [2,3-Diaminopropionic acid hydrochloride] | – | – | Lipase (RFU) [4]: 1119.42 RFU
53 | CC(C)c1ccc(C(=O)O)cc1 [4-Isopropylbenzoic acid] | 857.7524 RFU | – | –
54 | O=c1[nH]c(=O)c2[nH]c(=O)[nH]c2[nH]1 [Uric acid] | 923.7282 RFU | – | –
55 | N[C@H](Cc1ccc(OP(=O)(O)O)cc1)C(=O)O [O-Phospho-D-Tyrosine] | – | – | Lipase (RFU) [7]: 980.7186 RFU
56 | Nc1nc2c(ncn2[C@H]2C[C@H](O)[C@@H](CO)O2)c(=O)[nH]1 [2′-Deoxy Guanosine] | – | – | Lipase (RFU) [2]: 811.6129 RFU

Continued, in another order:

Row | Lipase (RFU) [1] | Lipase (RFU) [3] | Molecule | other results
57 | 1049.986 RFU | – | C[C@]12CCC(=O)C=C1C=C[C@@H]1[C@@H]2CC[C@@]2(C)[C@H]1CC[C@@]21CCC(=O)O1 [Canrenone] | –
58 | – | 1328.477 RFU | COc1cnccn1 [Compound 2-Methoxypyrazine, 2-Methoxypyrazine] | Lipase (RFU) [4]: 1228.173 RFU
59 | 821.8451 RFU | – | CC(=O)CC(=O)CCC(=O)O [4,6-Dioxoheptanoic acid] | –
60 | – | 1130.476 RFU | CC1(C)[C@@H]2CC[C@@]1(C)[C@H](O)C2 [Isoborneol] | –
61 | – | 1267.202 RFU | CCCCCCCCC(=O)O [Nonanoic acid] | –
62 | 959.7555 RFU | – | CC1OC(OCC2OC(Oc3c(-c4ccc(O)cc4)oc4cc(OC5OC(C)C(O)C(O)C5O)cc(O)c4c3=O)C(O)C(O)C2O)C(O)C(O)C1O (stereo not drawn) [Robinin] | –
63 | 1066.467 RFU | – | O=C(OCC1=C[C@@H](O)[C@@H]2C=CO[C@@H](O[C@@H]3O[C@H](CO)[C@@H](O)[C@H](O)[C@H]3O)[C@H]12)c1ccc(O)cc1 [Agnuside] | –
64 | 870.9314 RFU | 1129.48 RFU | C=CC(=C)CCC=C(C)C [Myrcene] | –
65 | 858.6987 RFU | 1314.57 RFU | Cc1ncc(C[n+]2csc(CCO)c2C)c(N)n1 [Thiamine (hydrochloride)] | –
66 | – | 888.5186 RFU | CC1=CC(=O)CC1 [3-Methyl-2-cyclopenten-1-one] | Lipase (RFU) [4]: 916.3953 RFU
67 | – | 1150.138 RFU | O=C1OCc2ccccc21 [Phthalide] | –
68 | 939.3139 RFU | – | CCCC(N)C(=O)O (racemic) [DL-Norvaline] | –
69 | 813.8427 RFU | – | C[C@H]1[C@H](C)CC[C@]2(C(=O)O)CC[C@]3(C)C(=CC[C@@H]4[C@@]5(C)C[C@@H](O)[C@H](O)[C@@](C)(CO)[C@@H]5[C@H](O)C[C@]43C)[C@H]12 [Madecassic acid] | –
70 | 928.0856 RFU | – | O=C(O)[C@@H]1CCCCN1 [L-Pipecolic acid] | –
71 | 763.6539 RFU | – | CC(=O)N[C@@H](CS)C(=O)O [Acetylcysteine] | –
72 | – | 1048.576 RFU | Pancreatin | –
73 | 845.5437 RFU | – | O=c1c(O)c(-c2ccc(O)cc2)oc2cc(O)cc(O)c12 [Kaempferol] | –
74 | 809.8605 RFU | – | C[C@H]1[C@H](C)CC[C@]2(C(=O)O)CC[C@]3(C)C(=CC[C@@H]4[C@@]5(C)C[C@@H](O)[C@H](O)[C@@](C)(CO)[C@@H]5CC[C@]43C)[C@H]12 [Asiatic acid] | –
75 | – | 1443.891 RFU | CC1=CC(=O)NS(=O)(=O)O1 [Acesulfame (potassium)] | –
76 | – | 1194.072 RFU | Cc1cc(C(C)(C)C)c(O)c(C(C)(C)C)c1 [Butylated hydroxytoluene] | –

Values joined by “and” are separate entries in the source; they are usually repeats but may differ in a detail not shown here. Equal entries are not always repeated. Structures can show the parent of a compound that is named as a salt.
